From patent publication US20040166062A1, “Ablation therapy using chemical shift magnetic resonance imaging” (priority 2003, published 2004)

Tested on: hepatic tumor
Test: Paper example: CS-MRI guided chemical ablation of a hepatic tumor
Details: slow injection under CS-MRI
Description: An MR-compatible needle is advanced into the lesions to introduce the ablation agent.
A patient presents for ethanol ablation therapy of a hepatic tumor. The patient is prepared by placement on the MRI scanner platform and the spectrometer is calibrated for ^13C-labeled ethanol using standard T1 and T2-weighted imaging. An MR-compatible needle is advanced into the lesions to introduce the ablation agent. Dynamic two-dimensional, chemical shift MRI is performed during the slow injection of ^13C-labeled ethanol. The distribution of ^13C-labeled ethanol is then directly visualized using chemical shift MRI.
A patient presents for hot saline ablation therapy of a hepatic tumor. The patient is prepared by placement on the MRI scanner platform and the spectrometer is calibrated for ^23Na-labeled saline using standard T1 and T2-weighted imaging. An MR-compatible needle is advanced into the lesions to introduce the ablation agent. Dynamic two-dimensional, chemical shift MRI is performed during the slow injection of ^23Na-labeled saline. The distribution of ^23Na-labeled saline is then directly visualized using chemical shift MRI.

How did the “damage to surrounding tissues” value turn out when ^13C-labeled acetic acid was run?
The value was “without damage to surrounding tissues”.
